Laboratory results from PubChem BioAssay AID651658 (Broad Institute, 2012).
Only a part is listed here, and it is no random draw. Activity calls are given as the source filed them.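 How the source made its calls: active means mean Tm shift, scaled 0 neutral to 100 positive control, at about 1.3% or above, every replicate too (limit read from the data); inconclusive means no clear call, values can overlap the other calls; inactive means the rest.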

Protein sequences, listed by entry. Tags and fused reporters are not part of them.
UniProt Q9HCT0, whole entry: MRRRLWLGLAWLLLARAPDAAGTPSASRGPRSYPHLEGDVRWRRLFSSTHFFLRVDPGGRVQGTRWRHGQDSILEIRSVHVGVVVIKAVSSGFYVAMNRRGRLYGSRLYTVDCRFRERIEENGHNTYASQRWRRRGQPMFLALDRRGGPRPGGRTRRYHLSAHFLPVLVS

Target: Fibroblast growth factor 22 (Homo sapiens) (UniProt Q9HCT0)
Assay: FGF22 ligand-induced thermal stabilization – biophysical, thermal shift, single point, FGF22 synaptogenesis inhibitor project, primary screen (AID 651658)
Settings: recombinant FGF22 thermal shift, SYPRO orange fluorescence; at 9.99 µM; stronger effect = higher value; percent of sucrose octasulfate shift, DMSO zero

Structure (SMILES)	activity (Tm shift, normalised)
CN(C(=O)Cc1ccccc1)C1CC[C@@]2(CCCO2)C[C@@H]1N1CCCC1 (some centres not stated)	inactive: -0.158%
Nc1cccc2ccc([As](=O)(O)O)cc12	inactive: -0.9%
CCCCCCCCCCCCCCCC1C[N+](C)(C)CCOP(C)(=O)O1 (configuration not stated)	inactive: -1.61%
CP(=O)(Nc1ccc(Cl)cc1Cl)Oc1ccccc1 (configuration not stated)	inactive: -0.124%
CP(=O)(OCCOc1ccccc1)OCCOc1ccccc1	inactive: 0.033%
Nc1ccc2c(ccc3cccnc32)n1.O=[N+]([O-])c1cc([N+](=O)[O-])c(O)c([N+](=O)[O-])c1	inactive: 0.221%
O=P1(N(CCCl)CCCl)OCCCS1 (configuration not stated)	inactive: -0.049%
CCOC(=O)c1ccc(NP(C)(=O)Oc2ccc(Cl)cc2)cc1 (configuration not stated)	inactive: 0.679%
O=C(Nc1cc([As](=O)(O)O)ccc1O)c1ccccc1	inactive: -0.527%
CC(C)(C)C(=O)NC(Sc1ccncn1)C(Cl)(Cl)Cl (configuration not stated)	inactive: 0.254%
O=[N+]([O-])c1ncn(CCn2ncnc2[N+](=O)[O-])n1	inactive: 1.17%
COC(=O)C1(C)COP(=O)(Nc2ccccc2)OC1 (configuration not stated)	inactive: -0.044%
O=[N+]([O-])c1cccc(NC2=NCC(CBr)S2)c1 (configuration not stated)	inactive: -0.124%
O=C(O)CNc1ccc([As](=O)(O)O)cc1	inactive: 0.06%
COc1ccc(C2=NCC(CBr)S2)cc1 (configuration not stated)	inactive: 0.175%
O=C(OCCCN1CCCC1)C(O)(c1ccccc1)C1CCCCC1 (configuration not stated)	inactive: -0.085%
Cc1ccc(NP(=O)(Oc2ccccc2)Oc2ccccc2)nc1	inactive: 0.011%
CCc1ccc(OP(C)(=O)Nc2cccnc2)cc1 (configuration not stated)	inactive: 0.46%
O=[N+]([O-])c1cc([N+](=O)[O-])c(CCNc2ccccc2)c([N+](=O)[O-])c1	inactive: 0.146%
COc1ccccc1OP(C)(=O)Nc1ccccc1Br (configuration not stated)	inactive: -0.156%
Nc1ccc([As](=O)(O)c2ccc(N)cc2)cc1	inactive: 0.119%
C[N+]1=C2C=CC=CC=C2SC12C([N+](=O)[O-])=CC([N+](=O)[O-])=C[C-]2[N+](=O)[O-] (configuration not stated)	inactive: 0.1%
CCN(/C(=N/P(=O)(N1CCOCC1)N1CCOCC1)N1CCOCC1)c1ccc(OC)cc1	inactive: -0.161%
CC(C)c1nc(Nc2ccccc2)n(P(=O)(N(C)C)N(C)C)n1	inactive: 0.057%

Structure (SMILES)	activity (Tm shift, normalised)
CN(C)C(=O)c1c([N+](=O)[O-])cc([N+](=O)[O-])cc1[N+](=O)[O-]	active: 43.5%
CC(C)=N/N=C(\N)N[N+](=O)[O-]	inactive: 0.111%
c1cc(-c2nn[nH]n2)ccc1-c1nn[nH]n1	inactive: 0.499%
CP(=O)(Nc1ccc(SC(F)(F)F)cc1)Oc1ccc(F)cc1 (configuration not stated)	inactive: 0.049%
CCOP(=O)(CC)OCC	inactive: -0.077%
O=P(Nc1ccccn1)(c1ccc(Br)cc1)c1ccc(Br)cc1	inactive: 0.169%
CN(C)C1(CNC(=O)c2ccc(Cl)c(S(N)(=O)=O)c2)CCCCC1	inactive: -0.26%
O=P(Nc1nc2ccccc2s1)(c1ccccc1)c1ccccc1	inactive: 0.219%
C[C@H]1OP(=O)(Oc2ccccc2)[C@H](O)[C@H](O)[C@H]1N=[N+]=[N-] (some centres not stated)	inactive: 0.05%
COc1ccc(NP(C)(=O)Oc2ccccc2OC)cc1 (configuration not stated)	inactive: 0.142%
O=[N+]([O-])c1ncn(CCn2cnc([N+](=O)[O-])n2)n1	inactive: 0.434%
CC(=O)NC(SC(=S)N(C)C)C(Cl)(Cl)Cl (configuration not stated)	inactive: 0.011%
O=[N+]([O-])c1ccc(OP2(=O)COCCO2)cc1 (configuration not stated)	inactive: -0.033%
O=[As](O)(c1ccccc1)c1ccc(O)cc1	inactive: 0.155%
O=[N+]([O-])c1cc([N+](=O)[O-])c(NCC2CCS(=O)(=O)C2)c([N+](=O)[O-])c1 (configuration not stated)	inactive: 0.052%
Cc1cc(-c2cccc3ccccc23)c(C)cn1.O=[N+]([O-])c1cc([N+](=O)[O-])c(O)c([N+](=O)[O-])c1	inactive: 1.07%
Cc1c(C(c2ccc3c(c2)OCO3)c2c(C)n(C)n(-c3ccccc3)c2=O)c(=O)n(-c2ccccc2)n1C.O=[N+]([O-])c1cc([N+](=O)[O-])c(O)c([N+](=O)[O-])c1	inactive: 0.104%
C/C(N)=N\P(=O)(OCc1ccccc1)OCc1ccccc1	inactive: -0.585%
C(Cc1nn[nH]n1)Cc1nn[nH]n1	inactive: 0.224%
Nc1ccc([As](=O)(O)c2ccc([N+](=O)[O-])cc2)cc1	inactive: -0.305%
CCNC(=S)/N=C(\N)N[N+](=O)[O-]	inactive: 0.139%
O=C(NC1CCS(=O)(=O)C1)NP(=S)(Oc1ccccc1)Oc1ccccc1 (configuration not stated)	inactive: -0.171%
CCN(CC)CCCNc1ccccc1[N+](=O)[O-].O=[N+]([O-])c1cc([N+](=O)[O-])c(O)c([N+](=O)[O-])c1	active: 1.47%
Cc1ccc(NP(=O)(Oc2cccc(C)c2)Oc2cccc(C)c2)nc1	inactive: -0.005%

Structure (SMILES)	activity (Tm shift, normalised)
O=P1(N(CCCl)CCCl)OCCC2CCCCN21 (configuration not stated)	inactive: -0.13%
COc1ccc(OP(C)(=O)Nc2ccc(SC(F)(F)F)cc2)cc1 (configuration not stated)	inactive: -0.001%
Cc1c([N+](=O)[O-])cc([N+](=O)[O-])c(Br)c1[N+](=O)[O-]	inactive: -0.144%
Cc1ccc(OP(=O)(Nc2ccccn2)Oc2ccc(C)cc2)cc1	inactive: 0.282%
O=C(OC1CN2CCC1CC2)c1ccccc1 (configuration not stated)	inactive: -0.009%
CC(NC(=O)COC(=O)C(O)(c1ccccc1)c1ccccc1)c1ccccc1 (configuration not stated)	inactive: -0.159%
Cc1ccccc1OP(=O)(Nc1ccccn1)Oc1ccccc1C	inactive: 0.152%
O=[N+]([O-])c1cc([N+](=O)[O-])c(OC2CCCCC2O)c([N+](=O)[O-])c1 (configuration not stated)	inactive: 0.081%
O=[N+]([O-])c1cc([N+](=O)[O-])c(Nc2ccc(Cl)cc2)c([N+](=O)[O-])c1	inactive: 0.532%
CCOc1ccc(C2=NCC(CBr)S2)cc1 (configuration not stated)	inactive: 0.113%
CCc1cc(O)c([N+](=O)[O-])c(C)c1[N+](=O)[O-]	inactive: -0.085%
CP(=O)(Nc1ccccc1F)Oc1ccccc1 (configuration not stated)	inactive: 0.14%
CC(C)(C)C(=O)NC(Sc1ccccc1)C(Cl)(Cl)Cl (configuration not stated)	inactive: -0.274%
CC(C)c1ccc(OP(C)(=O)Nc2ccc(SC(F)(F)F)cc2)cc1 (configuration not stated)	inactive: 0.371%
CC(=O)c1ccc(N2CC2c2ccncc2)cc1 (configuration not stated)	inactive: -0.33%
N#C/C(=C\c1ccc(N(CCBr)CCBr)cc1)C(N)=O	inactive: 0.198%
O=C(OC1CN2CCC1CC2)c1ccc([N+](=O)[O-])cc1 (configuration not stated)	inactive: -0.405%
COC(=O)C1(C)COP(=O)(NCc2ccccc2)OC1 (configuration not stated)	inactive: -0.31%
Cc1ccccc1CN(C)C(=O)COC(=O)C(O)(c1ccccc1)c1ccccc1	inactive: -0.014%
O=C(OCCN1CCN(CCOCc2ccccc2)CC1)C(O)(c1ccccc1)c1ccccc1	inactive: -0.056%
C[C@H]1OP(=O)(Oc2ccccc2)C[C@@H]2O[C@@H]21 (some centres not stated)	inactive: -0.51%
C[C@@H]1C=CCP(=O)(Oc2ccccc2)O1 (some centres not stated)	inactive: 0.021%
CC(=O)Nc1ccc([As](=O)(O)O)c(O)c1	inactive: 0.236%
CC(=O)Nc1ccc(Oc2c([N+](=O)[O-])cc([N+](=O)[O-])cc2[N+](=O)[O-])cc1	inactive: 0.356%
